2 substances from patent US20060035905A1, “Formulations of phosphodiesterase 5 inhibitors and methods of use” (Becton, Dickinson and Company, priority 2004, published 2006) can be followed below.

Marks after values point to notes of the source that are not given here.

The conditions of series [1]: ID 1.5 mm.
Series [2] has as its system Yucatan pigs. In words: Tissue irritancy after injection of sildenafil solutions in Yucatan pigs. The series is classed as in vivo. Particulars: 24 hr after injection.

sildenafil acetate: in series [1], the time of peak concentration (Tmax) (as a rule, the time at which the peak concentration occurs) came out at 12.6 min. Also, the Clearance in series [1] (dose normalized) stood at 41.614 mL/min/kg. In addition, in series [1] (up to last sampling time point), the AUC – broadly, concentration integrated over time – was determined as 114.97 ng·h/mL. Also, the Bioavailability in series [1] (versus IV mesylate) is reported as 59.21^c %. Also, the Cmax (commonly the peak of the concentration-time curve) in series [1] (~5 mg sildenafil, average) came out at 95.35 ng/mL. In series [2], the “tissue irritancy (in words)” value was “tissue necrosis and scaring observed in some pigs”.
As for sildenafil mesylate, the “tissue irritancy (in words)” value in series [2] is “only negligible or slight level of erythema and edema”.
